Measurements from ChEMBL document CHEMBL5518236, “Discovery of Clinical Candidate AZD5462, a Selective Oral Allosteric RXFP1 Agonist for Treatment of Heart Failure” (J Med Chem, 2024).

Target: T1, Relaxin receptor 1 (Homo sapiens) (UniProt Q9HBX9)
T1 sequence (whole entry): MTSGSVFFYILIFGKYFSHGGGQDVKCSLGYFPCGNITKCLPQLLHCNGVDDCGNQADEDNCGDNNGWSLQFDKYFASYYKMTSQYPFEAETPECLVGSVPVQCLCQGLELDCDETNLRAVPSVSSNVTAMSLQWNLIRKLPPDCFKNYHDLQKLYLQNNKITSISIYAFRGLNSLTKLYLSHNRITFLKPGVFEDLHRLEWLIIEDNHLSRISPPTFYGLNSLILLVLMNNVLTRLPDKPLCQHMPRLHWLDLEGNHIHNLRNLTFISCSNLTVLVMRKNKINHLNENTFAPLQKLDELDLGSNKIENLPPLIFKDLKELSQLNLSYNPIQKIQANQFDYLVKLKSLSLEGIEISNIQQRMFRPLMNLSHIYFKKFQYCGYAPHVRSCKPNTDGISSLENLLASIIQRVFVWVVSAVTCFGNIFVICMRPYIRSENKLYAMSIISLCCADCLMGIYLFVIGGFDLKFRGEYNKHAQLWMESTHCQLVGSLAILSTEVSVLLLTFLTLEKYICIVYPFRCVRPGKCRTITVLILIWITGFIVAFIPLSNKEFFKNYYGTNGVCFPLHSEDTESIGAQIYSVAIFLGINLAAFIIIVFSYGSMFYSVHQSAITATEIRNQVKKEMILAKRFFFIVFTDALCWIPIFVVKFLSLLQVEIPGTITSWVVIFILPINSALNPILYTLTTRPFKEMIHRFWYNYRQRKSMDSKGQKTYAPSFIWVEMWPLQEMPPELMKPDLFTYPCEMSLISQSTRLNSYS
Conditions: CHO, time 2.0 hrs

| SMILES | fpEC50 |
| --- | --- |
| COc1cc(F)c(O[C@H]2CC[C@@](C)(C(=O)O)CC2)cc1C(=O)N[C@@H]1[C@H]2CC[C@H](C2)[C@@H]1C(=O)Nc1ccc(F)c(S(F)(F)(F)(F)F)c1 | > 10.5 |
| CC(C)Oc1ccccc1C(=O)Nc1ccccc1C(=O)Nc1cccc(S(=O)(=O)C(F)(F)F)c1 | > 7.7 |
